Reference: patent US20240279201A1, “DUAL WNT SIGNALING PATHWAY INHIBITORS AND AMPK ACTIVATORS FOR TREATMENTS OF DISEASE” (priority 2021, published 2024)

Tested on: Wnt/β-Catenin signaling pathway
Assay: Wnt signaling luciferase (TOPflash) reporter gene assay
Assay type: cell-based
Conditions: mean of three independent experiments, read-out: IC50 (nM) to inhibit the Wnt signaling activity
Excerpt: A dual-luciferase gene reporter assay was used to test inhibitory activities of new compounds on Wnt signaling. […] Therefore, the effects of new compounds on AMPK was examined. […]

- IC50: 166 nM
SMILES: Oc1nc(-c2ccc(C(F)(F)F)cc2)nc2c1CSCC2 [XAV939, reference compound]
